Experiment: IVIS imaging of Cy7 albumin conjugates in tumor-bearing mice
Type: in vivo
Conditions: single dose 1 mg/kg Cy7 equivalent, tail vein
Protocol: FIG. 12: IVIS imaging of tumor-bearing mice after administration of a single dose of Cy7-rHSA (Cy7: rHSA=1:1) and Cy7 (3)-rHSA (Cy7: rHSA=3:1) at 1 mg/kg (Cy7 equivalent amount) through tail vein injection. (Left: back view; right: ventral view).
Tissue distribution: Next, the distribution of MMAE delivered in free drug form and albumin-drug conjugates were measured in select tissues (FIG. 7). In each group, mice were given a single dose of equivalent MMAE and after 24 hours dosing, released MMAE and total MMAE were both measured in homogenized tissues using a highly sensitive LC-MS method. […] Accumulation of free MMAE in MMAE-MAL group was slightly lower (2.2% ID/g), although the difference was not statistically different (p>0.1). […] The differences between free MMAE and total MMAE in healthy tissues indicate that albumin-drug conjugates were still circulating in these tissues in the conjugated form. They were stable in normal tissues but can be efficiently cleaved and released MMAE at the tumor site. Thereby, significant improvement of accumulation of MMAE in tumor was observed. […] In tumor-bearing mice in different treatment arms, we measured the amount of free MMAE and total MMAE present in tumor tissue at different timepoints and calculated the amount over time.

## Cy7(1): Cy7 albumin conjugate with dye to albumin ratio of 1
  signal at tumor site (IVIS imaging): strong signals
